ChEMBL document CHEMBL1142716, “2-Hydroxy-4,6-diamino-[1,3,5]triazines: a novel class of VEGF-R2 (KDR) tyrosine kinase inhibitors” (J Med Chem, 2005)

By UniProt entry, the sequences of proteins in these tests, tags left out.
UniProt P35968, whole entry: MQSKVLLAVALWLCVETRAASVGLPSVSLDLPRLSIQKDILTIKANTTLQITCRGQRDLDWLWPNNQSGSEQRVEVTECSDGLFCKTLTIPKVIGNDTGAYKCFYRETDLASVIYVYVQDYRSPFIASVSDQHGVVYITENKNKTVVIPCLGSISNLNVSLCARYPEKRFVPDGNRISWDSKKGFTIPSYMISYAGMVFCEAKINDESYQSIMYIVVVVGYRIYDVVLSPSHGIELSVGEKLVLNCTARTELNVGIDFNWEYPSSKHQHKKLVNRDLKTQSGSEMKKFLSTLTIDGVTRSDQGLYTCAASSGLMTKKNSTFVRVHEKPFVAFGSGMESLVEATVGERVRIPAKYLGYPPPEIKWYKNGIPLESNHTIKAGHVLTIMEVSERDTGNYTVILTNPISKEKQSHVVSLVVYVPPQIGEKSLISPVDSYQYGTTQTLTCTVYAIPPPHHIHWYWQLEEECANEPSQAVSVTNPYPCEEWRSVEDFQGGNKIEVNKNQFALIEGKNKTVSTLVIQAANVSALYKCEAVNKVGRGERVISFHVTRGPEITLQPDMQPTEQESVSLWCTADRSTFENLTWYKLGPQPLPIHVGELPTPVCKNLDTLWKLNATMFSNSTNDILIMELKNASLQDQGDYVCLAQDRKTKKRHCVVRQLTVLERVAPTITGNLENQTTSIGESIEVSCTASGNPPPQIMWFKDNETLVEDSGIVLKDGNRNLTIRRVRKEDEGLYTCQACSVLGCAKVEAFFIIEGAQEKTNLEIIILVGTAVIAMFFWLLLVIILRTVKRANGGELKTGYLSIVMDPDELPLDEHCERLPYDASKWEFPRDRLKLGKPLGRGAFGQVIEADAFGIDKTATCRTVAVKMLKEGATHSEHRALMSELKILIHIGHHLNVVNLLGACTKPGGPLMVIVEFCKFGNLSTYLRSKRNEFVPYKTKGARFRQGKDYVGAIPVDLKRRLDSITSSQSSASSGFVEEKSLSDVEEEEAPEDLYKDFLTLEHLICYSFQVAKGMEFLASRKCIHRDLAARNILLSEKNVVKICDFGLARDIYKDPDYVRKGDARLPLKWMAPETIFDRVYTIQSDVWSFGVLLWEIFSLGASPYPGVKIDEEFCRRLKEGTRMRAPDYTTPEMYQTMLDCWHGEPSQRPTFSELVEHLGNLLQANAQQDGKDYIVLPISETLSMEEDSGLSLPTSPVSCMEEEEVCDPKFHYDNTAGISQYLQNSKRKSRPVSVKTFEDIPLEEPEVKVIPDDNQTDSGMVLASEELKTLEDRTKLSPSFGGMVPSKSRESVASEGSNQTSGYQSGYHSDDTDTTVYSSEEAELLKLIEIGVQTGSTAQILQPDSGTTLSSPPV

Molecular target: Vascular endothelial growth factor receptor 2 (Homo sapiens, UniProt P35968)
Assay: In vitro inhibition of Vascular endothelial growth factor receptor 2 at 10 uM ATP

**Q.** Which IC50 does the source give for `CN(c1ccc2ncsc2c1)c1nc(NC(C)(C)c2ccccc2)nc(=O)[nH]1` here?
**A.** 1.6 µM
